Experimental data published in article PMC7072648, “N-(2-Hydroxyphenyl)-1-[3-(2-oxo-2,3-dihydro-1H- benzimidazol-1-yl)propyl]piperidine-4-Carboxamide (D2AAK4), a Multi-Target Ligand of Aminergic GPCRs, as a Potential Antipsychotic” (Biomolecules, 2020).

Tested on: mice
Assay: Spontaneous locomotor activity
Conditions: D2AAK4 100 mg/kg i.p.; amphetamine 5 mg/kg s.c.; versus control group

Row | SMILES | spontaneous locomotor activity (distance traveled, 30 min)
1 | O=C(Nc1ccccc1O)C1CCN(CCCn2c(=O)[nH]c3ccccc32)CC1 [D2AAK4, N-(2-hydroxyphenyl)-1-[3-(2-oxo-2,3-dihydro-1H-benzimidazol-1-yl)propyl]piperidine-4-carboxamide] | did not significantly change locomotor activity
2 | C[C@H](N)Cc1ccccc1.C[C@H](N)Cc1ccccc1.O=S(=O)(O)O [amphetamine, d-amphetamine sulphate, reference compound] | increased the locomotor activity
